{"source": "patent EP1705169A2", "about": "“Triphenylalkene derivatives and their use as selective estrogen receptor modulators” (priority 1999, dated 2001)", "tested_on": "ovariectomized rats", "settings": "5 mg/kg peroral daily, 4 weeks, ovariectomized rats (Sham 0.497 ± 0.103; Ovariectomized 0.099 ± 0.016)", "data": [{"compound": "OCCOc1ccc(/C(=C(/CCCl)c2ccccc2)c2ccccc2)cc1", "note": "[FC-1271a, 2-[4-(4-chloro-1,2-diphenyl-but-1-enyl)phenoxy]ethanol, reference compound]", "values": [{"measurement": "Uterine size", "value": "0.411 ± 0.042", "unit": "g"}]}]}
